# Yeast mating assay 1: variants of the scFv Ab-14

Source: Engelhart et al. 2022 (doi:10.1038/s41597-022-01779-4), MIT Lincoln Laboratory and A-Alpha Bio; data file from the FLAb repository.

All variants were tested on one target, the spike HR2 peptide PDVDLGDISGINAS (SARS-CoV-2).

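Phage display of a naive human antibody library on the peptide gave the parent. In library AAYL49, one, two or three CDR residues were substituted; doubles and triples were drawn at random. The assay is AlphaSeq: two haploid yeast populations carry antibody and antigen on their surface. After mating in shaken culture at 30 °C for 16 h, diploids were selected and their barcode pairs sequenced. Scores were corrected for input abundance and mapped to Kd with protein pairs of known affinity run in the same pool. The assay was run in three technical replicates.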

Parent scFv Ab-14: VH joined to VL by a 15-residue (Gly4Ser)3 linker. Changes lie in the heavy chain CDRs alone.
VH: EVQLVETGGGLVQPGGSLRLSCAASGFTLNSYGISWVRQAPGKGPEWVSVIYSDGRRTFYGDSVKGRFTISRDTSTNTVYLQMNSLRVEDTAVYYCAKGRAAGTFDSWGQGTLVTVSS
VL: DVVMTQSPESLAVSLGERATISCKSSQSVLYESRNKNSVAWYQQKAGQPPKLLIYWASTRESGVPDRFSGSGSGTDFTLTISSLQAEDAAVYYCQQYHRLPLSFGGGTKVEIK

Changes read parent residue, position, new residue, counted from the first residue of the VH shown.
Every variant below is changed at G26 of the VH (sequential numbering).
Kd is apparent (estimated from mating counts) and averaged on the log scale over replicates with a signal. Smaller is tighter.
An entry "nd" has no value in the source: the pair was not observed among the diploids in any replicate. This suggests poor binding but is not conclusive.
Empty control strains, which show no peptide, gave a signal in 15% of pairings with library AAYL49; the median was 11 µM and 95% of these signals were weaker than 680 nM. No background was subtracted. The control count says in how many pairings with the empty strains this scFv gave a signal.

Variant G26A T28C T104N gave 46 µM (3 of 3 replicates; controls 4 of 9).
Variant G26D R57E D106G gave nd (0 of 3 replicates; controls 1 of 9).
Variant G26C T58S S107P gave 11 µM (2 of 3 replicates; controls 4 of 9).
Variant G26P G99C A101H gave 7.2 µM (1 of 3 replicates; controls 3 of 9).
Variant G26Y A102P S107L gave 9.7 µM (1 of 3 replicates; controls 2 of 9).
Variant G26S Y32P G103Y gave 11 µM (1 of 3 replicates; controls 4 of 9).
Variant G26Y T28R G103Q gave nd (0 of 3 replicates; controls 2 of 9).
Variant G26L F59S K65F gave nd (0 of 3 replicates; controls 1 of 9).
Variant G26M L29F G55A gave nd (0 of 3 replicates; controls 1 of 9).
Variant G26E L29S S63E gave nd (0 of 3 replicates; controls 0 of 9).
Variant G26P T28K K65T gave 15 µM (1 of 3 replicates; controls 1 of 9).
Variant G26A R57S S63N gave 730 nM (1 of 3 replicates; controls 0 of 9).
Variant G26S S31P G61Q gave 5.7 µM (1 of 3 replicates; controls 2 of 9).
Variant G26I S53I gave nd (0 of 3 replicates; controls 0 of 9).
Variant G26R S53D G99I gave nd (0 of 3 replicates; controls 3 of 9).
Variant G26V D62A S107A gave 17 µM (2 of 3 replicates; controls 3 of 9).
Variant G26E G103A F105P gave nd (0 of 3 replicates; controls 0 of 9).
Variant G26P T58L V64N gave nd (0 of 3 replicates; controls 0 of 9).
Variant G26N R56K S63D gave 480 nM (3 of 3 replicates; controls 1 of 9).
Variant G26C K65M D106C gave 90 nM (3 of 3 replicates; controls 1 of 9).
Variant G26L N30T G103C gave 12 µM (2 of 3 replicates; controls 2 of 9).
Variant G26C R56K R100V gave nd (0 of 3 replicates; controls 0 of 9).
Variant G26A N30L K65R gave 50 nM (3 of 3 replicates; controls 4 of 9).
Variant G26N N30R I51F gave nd (0 of 3 replicates; controls 0 of 9).
Variant G26F Y32V T58D gave 810 nM (3 of 3 replicates; controls 2 of 9).
Variant G26N F27T S53R gave 2.9 µM (3 of 3 replicates; controls 0 of 9).
Variant G26Q S31D A101T gave 2.9 nM (3 of 3 replicates; controls 0 of 9).
Variant G26H V50N D106H gave nd (0 of 3 replicates; controls 1 of 9).
Variant G26A F27I R56L gave 20 nM (3 of 3 replicates; controls 2 of 9).
Variant G26D D54T gave nd (0 of 3 replicates; controls 0 of 9).
Variant G26I Y52E Y60C gave 4.2 µM (2 of 3 replicates; controls 4 of 9).
Variant G26N Y60S gave 120 µM (3 of 3 replicates; controls 4 of 9).
Variant G26R F59E gave 71 nM (3 of 3 replicates; controls 3 of 9).
Variant G26D T28Q I34S gave 6.0 nM (3 of 3 replicates; controls 0 of 9).
Variant G26F Y32P D62C gave 8.9 µM (1 of 3 replicates; controls 0 of 9).
Variant G26L S63H T104V gave nd (0 of 3 replicates; controls 0 of 9).
Variant G26S A102T F105Q gave 450 nM (3 of 3 replicates; controls 5 of 9).
Variant G26I V64M S107D gave nd (0 of 3 replicates; controls 1 of 9).
Variant G26I T104L F105V gave 670 µM (1 of 3 replicates; controls 4 of 9).
Variant G26Y A101E T104L gave nd (0 of 3 replicates; controls 0 of 9).
Variant G26H G55E V64H gave nd (0 of 3 replicates; controls 3 of 9).
Variant G26V L29F R56L gave nd (0 of 3 replicates; controls 0 of 9).
Variant G26P F105D S107H gave 32 nM (3 of 3 replicates; controls 3 of 9).
Variant G26H S53G S107G gave nd (0 of 3 replicates; controls 0 of 9).
Variant G26T F27R Y32I gave 3.4 µM (2 of 3 replicates; controls 4 of 9).
Variant G26Y T28P G103N gave nd (0 of 3 replicates; controls 0 of 9).
Variant G26W Y52S R57D gave nd (0 of 3 replicates; controls 0 of 9).
Variant G26Q L29D gave 38 nM (3 of 3 replicates; controls 1 of 9).
Variant G26N F27Q A101R gave 2.1 µM (3 of 3 replicates; controls 3 of 9).

Extract of 4 entries:

changes,apparent Kd,seen in,control signals
G26P G99C A101H,7.2 µM,1 of 3,3 of 9
G26P T28K K65T,15 µM,1 of 3,1 of 9
G26V L29F R56L,nd,0 of 3,0 of 9
G26S Y32P G103Y,11 µM,1 of 3,4 of 9

In this assay the parent's reference entry averaged 4.4 nM; its copy inside this library read 13 µM (one replicate of three).